Data taken from patent US20120165309A1, “HETERO RING DERIVATIVE” (Astellas Pharma Inc., priority 2009, published 2012).

Sequences of proteins named here, by UniProt entry; tags and fusion partners are left off. A change or cut given only in a name is not applied to a line headed by its entry.
UniProt O00329: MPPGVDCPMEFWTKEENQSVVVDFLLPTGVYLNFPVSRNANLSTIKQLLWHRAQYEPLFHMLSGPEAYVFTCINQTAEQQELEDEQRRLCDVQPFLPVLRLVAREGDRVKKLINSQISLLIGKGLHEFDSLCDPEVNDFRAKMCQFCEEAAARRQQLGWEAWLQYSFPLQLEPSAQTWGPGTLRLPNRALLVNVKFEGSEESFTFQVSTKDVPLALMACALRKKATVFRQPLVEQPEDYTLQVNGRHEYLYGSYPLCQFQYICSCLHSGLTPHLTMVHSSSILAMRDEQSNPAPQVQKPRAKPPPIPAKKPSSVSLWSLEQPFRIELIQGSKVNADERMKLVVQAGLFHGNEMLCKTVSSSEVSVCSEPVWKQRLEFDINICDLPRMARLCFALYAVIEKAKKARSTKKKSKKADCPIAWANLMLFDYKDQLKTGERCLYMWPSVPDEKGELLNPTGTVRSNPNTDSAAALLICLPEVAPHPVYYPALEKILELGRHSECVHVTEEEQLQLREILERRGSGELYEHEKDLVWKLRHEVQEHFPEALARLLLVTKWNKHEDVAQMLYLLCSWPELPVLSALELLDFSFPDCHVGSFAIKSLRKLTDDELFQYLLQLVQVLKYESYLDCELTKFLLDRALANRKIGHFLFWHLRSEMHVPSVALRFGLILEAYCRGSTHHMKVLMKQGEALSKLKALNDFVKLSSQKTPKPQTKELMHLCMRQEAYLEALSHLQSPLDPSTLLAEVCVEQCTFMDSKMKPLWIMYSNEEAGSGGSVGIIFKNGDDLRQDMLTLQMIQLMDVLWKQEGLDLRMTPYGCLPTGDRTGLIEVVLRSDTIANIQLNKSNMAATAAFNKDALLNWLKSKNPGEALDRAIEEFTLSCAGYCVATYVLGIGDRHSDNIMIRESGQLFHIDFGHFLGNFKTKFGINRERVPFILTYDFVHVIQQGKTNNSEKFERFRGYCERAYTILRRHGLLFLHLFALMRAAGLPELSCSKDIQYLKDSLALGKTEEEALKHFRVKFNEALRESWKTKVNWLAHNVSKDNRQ

Biological target: T1, human PI3Kδ enzyme (Homo sapiens, UniProt O00329)
T1 construct: purchased Millipore Corporation 14-604
Experiment: PI3Kδ enzyme inhibitory activity (PI3-Kinase HTRF Assay kit)
Format: biochemical
Procedure: 1. PI3Kδ Enzyme Inhibitory Activity
For the experiment, a PI3-Kinase HTRF Assay kit (Millipore Corporation, Catalogue No. 33-016) and a human PI3Kδ enzyme (Millipore Corporation, Catalogue No. 14-604) were used. The measurement method was in accordance with the appended instructions. The overview thereof is as follows.
PI3Kδ (10 ng/well), phosphatidylinositol-4,5-bisphosphate (10 μM), ATP (30 μM), and the test compound were mixed in a 384-well plate (total 20 μL), and incubated at room temperature for 30 minutes. EDTA and biotinylated phosphatidylinositol-3,4,5-triphosphate were added thereto to stop the reaction. Thereafter, a Europium labeled anti-GST antibody, a GST bond GRP1 PH domain, and streptavidin-APC were added thereto, followed by incubation overnight. An HTRF ratio was measured using an HTRF plate reader. The IC50 value of the compound was calculated, taking the inhibition rate without addition of the enzyme as 100% and the inhibition rate without addition of the test compound as 0%, by means of a logistic method.
In the Table, Ex represents Example Compound No. as described later, PI3Kδ represents the IC50 value (nM) of a PI3Kδ enzyme inhibitory activity, and PI3Kα represents the IC50 value (nM) of a PI3Kα enzyme inhibitory activity.

## CN(C)CC(=O)N[C@H]1CC[C@H](Nc2nc(N3CCOCC3)nc(-n3c(C(F)F)nc4ccccc43)n2)CC1 [Example 40]
  IC50: 3.6 nM
